The source of these data is article PMC12070228, “Investigations of Enteric-Coated Tablet Propyl Gallate-Induced Nephrotoxicity in Beagles as well as Human and Dog Renal Proximal Tubule Epithelial Cells” (ACS Pharmacology & Translational Science, 2025).

The nature of the series: Exposure comparison of PG and phase-I and phase-II metabolites in dog and human plasma. To be noted: human and dog plasma after oral EC MEDI7219 tablets; samples through 8 h.

As to gallic acid-glutathione [GA-GSH], the Exposure in circulation result was “very low exposure”. Take propyl gallate-glutathione [PG-GSH]: the Exposure in circulation result was “very low exposure”.
